Experimental data: patent US4590207A, “Therapeutic and/or preventive ophthalmic solution for intraocular hypertension and glaucoma” (Eisai Co., Ltd., priority 1984, dated 1986)

System: intraocular tension
Assay: Lowering of intraocular tension (general statement, no method given)
Conditions: oily solvent needed for effective concentration

O=[N+]([O-])OC1COC2C(O[N+](=O)[O-])COC12 (stereo not shown)
lowering of intraocular tension: would also lower intraocular tension
